In one assay the test system is panic-prone rats. Briefly: Sodium lactate challenge in panic-prone (l-allylglycine) rats. It counts as in vivo, rat. The note with it: 30 mg/kg i.p., FIG. 1e. From the text: Panic disorder is associated with disruption of central inhibitory gamma-aminobutyric acid (GABAergic) tone, and may contribute to panic attacks which are consistently provoked by ordinarily mild physical stressors such as mild osmotic disturbances (e.g., intravenous sodium lactate challenges).
Orexin/hypocretin producing neurons are almost exclusive to dorsomedial hypothalamus and adjacent lateral hypothalamus, and play a critical role in maintaining wakefulness, vigilance and central sympathetic mobilization, which are key components of panic and anxiety. Experiments were conducted to investigate whether the administration of either a systemic orexin 1 antagonist or silencing the hypothalamic orexin gene product with RNA interference could block lactate-induced panic responses.

For assay [1], the system named is bilaterally ovariectomized adult female rats.
Another assay has as its system ORX1 and ORX2 receptors. The note with it: cited from earlier work.

SMILES strings stand for the structures. “Also recorded” adds a separate entry of the source.

On to `Cc1nc2ccc(NC(=O)Nc3ccnc4cccnc34)cc2o1` [SB334867, 1-(2-methylbenzoxazol-6-yl)-3-[1,5]naphthyridin-4-yl urea], for which the “lactate induced increases in general locomotor activity (flight behavior)” value in the assay on panic-prone rats is given as “block; also recorded: attenuated”; in the assay on panic-prone rats (listed as orexin 1 receptor antagonist) it was “blocks”. For the same molecule, the “OVEX-induced adverse menopausal activity (circadian disruption of tail temperature, tail temp responses to challenges, anxiety-like behavior)” value in assay [1] is recorded as “attenuated”. The “selectivity for ORX1 over ORX2 receptors” value in the assay with ORX1 and ORX2 receptors is reported as “around 100 ×”.

The values are drawn from US20130191934A1, “TREATMENT OF SYMPTOMS ASSOCIATED WITH MENOPAUSE” (INDIANA UNIVERSITY RESEARCH AND TECHNOLOGY CORPORA, priority 2010, published 2013).
